Assay results: BindingDB's records for 16777416 (2006)

Chains of the proteins cited; added tags and fusions are not shown. Lines headed by an entry give the natural chain unless they say otherwise; changes in a name come on top.
UniProt P47748: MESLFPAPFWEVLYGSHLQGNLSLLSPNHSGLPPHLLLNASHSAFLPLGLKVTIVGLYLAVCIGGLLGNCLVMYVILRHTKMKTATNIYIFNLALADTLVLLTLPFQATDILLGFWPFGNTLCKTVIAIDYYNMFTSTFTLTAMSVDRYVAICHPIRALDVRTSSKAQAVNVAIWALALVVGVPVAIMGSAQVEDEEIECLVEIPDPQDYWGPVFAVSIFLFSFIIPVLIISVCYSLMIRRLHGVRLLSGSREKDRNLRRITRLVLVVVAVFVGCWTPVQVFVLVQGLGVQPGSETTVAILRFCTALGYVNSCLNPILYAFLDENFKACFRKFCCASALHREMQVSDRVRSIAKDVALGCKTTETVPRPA

Target: Nociceptin receptor (Cavia porcellus, UniProt P47748)
Assay: Displacement of radiolabeled NalBzOH from kappa3 opioid receptor in Hartley guinea pig brain

In the case of `CN(C(=O)Cc1ccccc1)[C@H]1C[C@@]2(CCCO2)CC[C@@H]1N1CCCC1`, the Ki is reported as 1100 nM.
